# Data published in US20150148256A1, “BIOLUMINESCENCE IMAGING-BASED SCREENING ASSAY AND INHIBITORS OF ABCG2” (THE JOHNS HOPKINS UNIVERSITY, priority 2008, published 2015).
# Test system: ABCG2-overexpressing NCI-H460/MX20 cells
# Assay: Mitoxantrone (MTX) resensitization assay (XTT)
smiles,measurement,setting,value
CCN(CC)CCCC(C)Nc1c2ccc(Cl)cc2nc2ccc(OC)cc12 (stereo not drawn) [quinacrine],MTX (mitoxantrone resensitization assay),H460/MX20 cells with MTX,Y
same,resensitization of H460/MX20 cells to MTX,"compound 1 μM with 15 μM MTX, two days",showed resensitization of H460/MX20 cells to MTX
same,cytotoxicity in the MTX resensitization assay,"compound 20 μM, H460/MX20 cells",too cytotoxic to be tested in the MTX assay
